The values that follow come from patent US20240408226A1, “ANTIBODY DRUG CONJUGATE INTERMEDIATE CONTAINING SN38 AND ITS PREPARATION METHOD” (priority 2021, published 2024).

In data set [1] the test system is NCI-N87 cells. Kind of data set: Inhibitory effect on NCI-N87 cells (CCK-8). The format is cell-based. Conditions: ADC-1 group vs ADC-17 group.
The subject of data set [2] is BT474 cells. Kind of data set: Inhibitory effect of anti-Her2-drug conjugates on in situ breast cancer (BT474 in mammary fat pads). Conditions: for Tumor volume (mm^3) D 21: D 21, BT474 tumours. Type of data set: in vivo, female BALB/c nude mice.
Data set [3] has as its system HER2-positive metastatic breast cancer. Conditions: 99 patients; cited from earlier work.

Marks after values point to notes of the source that are not given here.

Take “ADC-17: linker and toxin corresponding to CL2A-SN38, coupled with Heceptin; control ADC [reference compound]”: the “Inhibitory effect on NCI-N87 cells (comparison in words)” value in data set [1] was “comparable inhibitory effect”. Moreover, in data set [2] (5 mg/kg intravenously once a week), the “Inhibition of BT474 tumor growth” value is “significantly inhibited the BT474 tumor growth with comparable effects”. The “Tumor volume (mm^3) D 1” value in data set [2] (D 1, BT474 tumours, 5 mg/kg intravenously once a week) is on record as 67.95 ± 15.73 mm^3. Also, the “Tumor volume (mm^3) D 21” value is given as 49.17 ± 13.29** mm^3 in data set [2] (5 mg/kg intravenously once a week, 5 mg/kg) and 49.17±13.29 mm^3 in data set [2] (5 mg/kg intravenously once a week, listed as control group 2, 5 mg/kg). The “Weight (g) D 1” value in data set [2] (body weight of mice, D 1, 5 mg/kg intravenously once a week) was 18.73 ± 0.78 g. In data set [2] (body weight of mice, D 21, 5 mg/kg intravenously once a week), the “Weight (g) D 21” value is 20.36 ± 0.90 g. Also, the “Body weight compared with control group 1” value in data set [2] (end of the experiment, vs normal saline) is recorded as “no significant difference in body weight”.
In the case of Enhertu, in data set [3], the disease control rate was 93.9% and the objective remission rate is given as 54.5%.
